# Data from PubChem BioAssay AID624377 (The Scripps Research Institute Molecular Screening Center, 2012).
# Amino acid sequences for entries named in this document (tags omitted). A change or cut given only in a name is not applied to a line headed by its entry.
# UniProt Q9ULH1: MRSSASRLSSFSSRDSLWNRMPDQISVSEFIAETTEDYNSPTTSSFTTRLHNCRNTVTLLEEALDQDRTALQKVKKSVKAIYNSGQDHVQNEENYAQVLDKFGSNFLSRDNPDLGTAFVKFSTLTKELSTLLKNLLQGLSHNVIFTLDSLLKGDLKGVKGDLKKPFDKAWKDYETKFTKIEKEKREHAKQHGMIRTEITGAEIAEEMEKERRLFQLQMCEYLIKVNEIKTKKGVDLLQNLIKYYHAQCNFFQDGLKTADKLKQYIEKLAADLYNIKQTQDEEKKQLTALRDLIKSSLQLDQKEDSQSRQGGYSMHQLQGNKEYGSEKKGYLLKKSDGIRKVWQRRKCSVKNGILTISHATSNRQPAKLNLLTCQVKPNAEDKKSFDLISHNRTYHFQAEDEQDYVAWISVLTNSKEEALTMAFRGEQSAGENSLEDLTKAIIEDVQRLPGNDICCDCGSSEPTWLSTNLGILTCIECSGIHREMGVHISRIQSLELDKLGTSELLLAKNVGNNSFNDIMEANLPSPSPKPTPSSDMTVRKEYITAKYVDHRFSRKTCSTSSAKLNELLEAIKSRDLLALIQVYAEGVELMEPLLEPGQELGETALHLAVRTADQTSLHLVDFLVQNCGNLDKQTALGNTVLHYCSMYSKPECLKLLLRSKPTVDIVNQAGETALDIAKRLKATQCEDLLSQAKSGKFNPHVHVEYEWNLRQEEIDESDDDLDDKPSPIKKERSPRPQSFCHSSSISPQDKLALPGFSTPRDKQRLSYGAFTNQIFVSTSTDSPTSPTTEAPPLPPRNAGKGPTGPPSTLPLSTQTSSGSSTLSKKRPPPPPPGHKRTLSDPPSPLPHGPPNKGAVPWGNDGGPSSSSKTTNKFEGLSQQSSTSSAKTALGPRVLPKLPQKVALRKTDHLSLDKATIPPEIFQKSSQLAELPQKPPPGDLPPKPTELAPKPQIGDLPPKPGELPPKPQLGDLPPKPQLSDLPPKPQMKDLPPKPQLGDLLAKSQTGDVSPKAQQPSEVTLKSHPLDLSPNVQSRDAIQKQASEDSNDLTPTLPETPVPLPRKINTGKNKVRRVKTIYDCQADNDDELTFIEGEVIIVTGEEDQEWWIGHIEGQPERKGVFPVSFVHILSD
# The entries are a selection whose mix differs from that of the whole data set. Active and inactive are the calls of the source. No stated cut-off is given here; in the data, active means inhibition above about 25%; inactive means the rest.
# Target: Arf-GAP with SH3 domain, ANK repeat and PH domain-containing protein 1 (Homo sapiens) (UniProt Q9ULH1)
# Experiment: inhibitors of human ASAP1 ArfGAP activity, primary screen, biochemical, fluorescence polarization (AID 624377);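 further: 0% = vehicle with enzyme and substrate and 100% = no enzyme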
# Settings: ASAP1-stimulated ARF1 GTP hydrolysis, GDP FP detection; at 16.5 µM; stronger effect = higher value
row,SMILES,inhibition
1,COc1ccccc1OP(=O)(Nc1ccc(C)cn1)Oc1ccccc1OC,inactive: 6.34%
2,Cc1ccc(OP(=O)(Nc2nccs2)Oc2ccc(C)cc2)cc1,inactive: -6.12%
3,CN1CCCC(OC(=O)C(c2ccccc2)c2ccccc2)C1 (centres undefined),inactive: 7.26%
4,Clc1ccc(Cl)c(NC2=NCC(CBr)S2)c1 (centres undefined),inactive: 18.6%
5,NC(=O)c1cc([N+](=O)[O-])cc([N+](=O)[O-])c1N,inactive: 0.43%
6,CN(C(=O)Cc1ccc(Cl)c(Cl)c1)[C@H]1CCCC[C@H]1N1CCCC1,inactive: -5.46%
7,Cc1ccc(N/C(=N/P(=O)(N2CCOCC2)N2CCOCC2)N2CCOCC2)cc1,inactive: -3.97%
8,Nc1cc(N)c2nonc2c1[N+](=O)[O-],inactive: 4.76%
9,CC(C)CC(=O)NC(Sc1ccc(Cl)cc1)C(Cl)(Cl)Cl (centres undefined),inactive: -5.35%
10,Oc1ccccc1CNc1ccccn1,inactive: -3.72%
11,O=C(NC(Sc1ccncn1)C(Cl)(Cl)Cl)c1ccccc1 (centres undefined),inactive: -12.2%
12,CC(=O)N1C2C3N(C(C)=O)C1C1N(C(C)=O)C(C(N1C(C)=O)N3C(C)=O)N2C(C)=O,inactive: -12.6%
13,O=[N+]([O-])c1cccc2n[nH]nc12,inactive: 16.1%
14,Cc1ccc(NP(=O)(Oc2ccccc2)Oc2ccccc2)nc1,inactive: 10.6%
15,O=[N+]([O-])c1cc([N+](=O)[O-])c(CCNc2ccccc2)c([N+](=O)[O-])c1,inactive: 7.77%
16,CCc1nc2c(n1)c1c(non1O)c1c2no[n+]1[O-],inactive: 2.28%
17,COc1ccc(C2=NCC(CBr)S2)cc1 (centres undefined),inactive: -2.61%
18,CC(C)c1nc(Nc2ccccc2)n(P(=O)(N(C)C)N(C)C)n1,inactive: 21%
19,CC(C)=N/N=C(\N)N[N+](=O)[O-],inactive: 2.04%
20,CN(C)C(=O)OCCc1n(C)cc[n+]1C,inactive: 2.16%
21,CC1CCN(C(=O)Oc2c(Cl)cc(Cl)c3cccnc23)CC1,inactive: -18.2%
22,c1cc(-c2nn[nH]n2)ccc1-c1nn[nH]n1,inactive: -11.3%
23,Nc1ccc([As](=O)(O)c2ccc(N)cc2)cc1,inactive: -6.47%
24,C[N+]1=C2C=CC=CC=C2SC12C([N+](=O)[O-])=CC([N+](=O)[O-])=C[C-]2[N+](=O)[O-] (centres undefined),inactive: -2.47%
25,CCN(/C(=N/P(=O)(N1CCOCC1)N1CCOCC1)N1CCOCC1)c1ccc(OC)cc1,inactive: 8.88%

row,SMILES,inhibition
1,O=C(Nc1cc([As](=O)(O)O)ccc1O)c1ccccc1,inactive: -4.89%
2,O=P1(N(CCCl)CCCl)OCCCS1 (centres undefined),inactive: -10.3%
3,COC(=O)C1(C)COP(=O)(Nc2ccccc2)OC1 (centres undefined),inactive: 2.58%
4,O=[N+]([O-])c1cccc(NC2=NCC(CBr)S2)c1 (centres undefined),inactive: -2.59%
5,O=C(O)CNc1ccc([As](=O)(O)O)cc1,inactive: -3.18%
6,CC(C)(C)C(=O)NC(Sc1ccncn1)C(Cl)(Cl)Cl (centres undefined),inactive: -6.6%
7,O=[N+]([O-])c1ncn(CCn2ncnc2[N+](=O)[O-])n1,inactive: -4.57%
8,O=P(Nc1nc2ccccc2s1)(c1ccccc1)c1ccccc1,inactive: 1.57%
9,C[C@H]1OP(=O)(Oc2ccccc2)[C@H](O)[C@H](O)[C@H]1N=[N+]=[N-] (some centres undefined),inactive: -6.19%
10,COc1ccc(N)c([N+](=O)[O-])c1[N+](=O)[O-],inactive: -8.2%
11,Nc1ccc(CCCCOc2ccccc2)cc1,inactive: -5.01%
12,CN(C)C1(CNC(=O)c2ccc(Cl)c(S(N)(=O)=O)c2)CCCCC1,inactive: 0%
13,O=P(Nc1ccccn1)(c1ccc(Br)cc1)c1ccc(Br)cc1,inactive: -5.82%
14,C/C(N)=N\P(=O)(OCc1ccccc1)OCc1ccccc1,inactive: 12.7%
15,C(Cc1nn[nH]n1)Cc1nn[nH]n1,inactive: 8.74%
16,Nc1ccc([As](=O)(O)c2ccc([N+](=O)[O-])cc2)cc1,inactive: 7.13%
17,O=C(OC1CN2CCC1CC2)c1cccc(Cl)c1 (centres undefined),inactive: -14.9%
18,O=[N+]([O-])c1ncn(CCn2cnc([N+](=O)[O-])n2)n1,inactive: 12.2%
19,CC(=O)NC(SC(=S)N(C)C)C(Cl)(Cl)Cl (centres undefined),inactive: -13.7%
20,O=[As](O)(c1ccccc1)c1ccc(O)cc1,inactive: -4.3%
21,c1nnnn1CCn1cnnn1,inactive: -8.46%
22,O=P(Nc1nccs1)(c1ccccc1)c1ccccc1,inactive: -9.2%
23,CC(C)C(=O)NC(Sc1ccccc1)C(Cl)(Cl)Cl (centres undefined),inactive: 0.31%
24,CCc1cc(O)c([N+](=O)[O-])c(C)c1[N+](=O)[O-],inactive: -8.17%
25,CC(C)(C)C(=O)NC(Sc1ccccc1)C(Cl)(Cl)Cl (centres undefined),inactive: 1.46%

row,SMILES,inhibition
1,O=P1(Nc2nc3ccc(Cl)cc3s2)COc2ccccc2O1 (centres undefined),inactive: 2.04%
2,CCOc1ccc(C2=NCC(CBr)S2)cc1 (centres undefined),inactive: 14%
3,CC(=O)Nc1ccc([As](=O)(O)O)c(O)c1,inactive: -0.05%
4,CC(=O)Nc1ccc(Oc2c([N+](=O)[O-])cc([N+](=O)[O-])cc2[N+](=O)[O-])cc1,inactive: -9.79%
5,CC(=O)c1ccc(N2CC2c2ccncc2)cc1 (centres undefined),inactive: -7.02%
6,N#C/C(=C\c1ccc(N(CCBr)CCBr)cc1)C(N)=O,inactive: -13.8%
7,COC(=O)C1(C)COP(=O)(NCc2ccccc2)OC1 (centres undefined),inactive: 3.5%
8,Cc1ccccc1CN(C)C(=O)COC(=O)C(O)(c1ccccc1)c1ccccc1,inactive: -3.07%
9,C[C@H]1OP(=O)(Oc2ccccc2)C[C@@H]2O[C@@H]21 (some centres undefined),inactive: 6.89%
10,C[C@@H]1C=CCP(=O)(Oc2ccccc2)O1 (some centres undefined),inactive: -9.07%
11,O=P1(N(CCCl)CCCl)OCCC2CCCCN21 (centres undefined),inactive: -13.1%
12,O=C(NC1CCS(=O)(=O)C1)NP(=S)(Oc1ccccc1)Oc1ccccc1 (centres undefined),inactive: -16%
13,CCNC(=S)/N=C(\N)N[N+](=O)[O-],inactive: 3.67%
14,c1ccc(-c2nn[nH]n2)c(-c2nn[nH]n2)c1,inactive: 6.68%
15,Cc1ccc(NP(=O)(Oc2cccc(C)c2)Oc2cccc(C)c2)nc1,inactive: -7.1%
16,CC(NC(=O)COC(=O)C(O)(c1ccccc1)c1ccccc1)c1ccccc1 (centres undefined),inactive: -0.38%
17,Cc1ccccc1OP(=O)(Nc1ccccn1)Oc1ccccc1C,inactive: -7.46%
18,O=c1c2cc([N+](=O)[O-])ccc2[nH]c2c([N+](=O)[O-])cc([N+](=O)[O-])cc12,inactive: -12.9%
19,CN(C)C(=O)Oc1noc2ccccc12,inactive: 9.92%
20,COC(=O)c1cc2c(s1)N=C(c1ccccc1)N(C)P2(=O)N1CCOCC1 (centres undefined),inactive: 7.2%
21,Cc1ccc(OP(=O)(Nc2ccccn2)Oc2ccc(C)cc2)cc1,inactive: 1.36%
22,CC(=O)NC(SC(=S)N(CC(C)C)CC(C)C)C(Cl)(Cl)Cl (centres undefined),inactive: -5.19%
23,O=C(OC1CN2CCC1CC2)c1ccccc1 (centres undefined),inactive: -16.4%
24,CCC(=O)N1C2C3N(C(=O)CC)C1C1N(C(=O)CC)C(C(N1C(=O)CC)N3C(=O)CC)N2C(=O)CC,inactive: -4.06%
